Biological target: T1, human 5-HT6R (Homo sapiens, UniProt P50406)
T1 construct: host or cells: CHO-K1
Test: 5-HT6R radioligand binding assay
Conditions: [3H]-LSD, CHO-K1 membranes; mean ± SD of two technical replicates

Sequences of proteins named here, by UniProt entry; tags and fusion partners are left off.
UniProt P50406, whole entry: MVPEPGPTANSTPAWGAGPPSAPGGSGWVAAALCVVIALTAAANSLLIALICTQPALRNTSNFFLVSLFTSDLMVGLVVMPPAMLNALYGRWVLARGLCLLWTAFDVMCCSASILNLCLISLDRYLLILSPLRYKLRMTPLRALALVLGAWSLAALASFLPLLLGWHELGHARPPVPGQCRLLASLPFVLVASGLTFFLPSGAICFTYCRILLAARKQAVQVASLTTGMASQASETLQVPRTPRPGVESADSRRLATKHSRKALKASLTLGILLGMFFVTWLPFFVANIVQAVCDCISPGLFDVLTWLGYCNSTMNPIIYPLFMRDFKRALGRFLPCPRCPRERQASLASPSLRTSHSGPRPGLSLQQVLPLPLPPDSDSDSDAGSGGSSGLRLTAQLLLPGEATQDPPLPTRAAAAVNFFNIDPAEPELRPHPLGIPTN

SMILES: C#CCN1CCN(CCCOc2ccc3c(ccn3S(=O)(=O)c3ccc(C(=O)NNCCC)cc3)c2)CC1 [FRB56]
- Ki: 30.7 ± 6.76 µM
